Among the data in PubChem BioAssay AID651548 (Broad Institute, 2012) are inhibition values, retold here.

Sequences of proteins named here, by UniProt entry; tags and fusion partners are left off.
UniProt Q15910, whole entry: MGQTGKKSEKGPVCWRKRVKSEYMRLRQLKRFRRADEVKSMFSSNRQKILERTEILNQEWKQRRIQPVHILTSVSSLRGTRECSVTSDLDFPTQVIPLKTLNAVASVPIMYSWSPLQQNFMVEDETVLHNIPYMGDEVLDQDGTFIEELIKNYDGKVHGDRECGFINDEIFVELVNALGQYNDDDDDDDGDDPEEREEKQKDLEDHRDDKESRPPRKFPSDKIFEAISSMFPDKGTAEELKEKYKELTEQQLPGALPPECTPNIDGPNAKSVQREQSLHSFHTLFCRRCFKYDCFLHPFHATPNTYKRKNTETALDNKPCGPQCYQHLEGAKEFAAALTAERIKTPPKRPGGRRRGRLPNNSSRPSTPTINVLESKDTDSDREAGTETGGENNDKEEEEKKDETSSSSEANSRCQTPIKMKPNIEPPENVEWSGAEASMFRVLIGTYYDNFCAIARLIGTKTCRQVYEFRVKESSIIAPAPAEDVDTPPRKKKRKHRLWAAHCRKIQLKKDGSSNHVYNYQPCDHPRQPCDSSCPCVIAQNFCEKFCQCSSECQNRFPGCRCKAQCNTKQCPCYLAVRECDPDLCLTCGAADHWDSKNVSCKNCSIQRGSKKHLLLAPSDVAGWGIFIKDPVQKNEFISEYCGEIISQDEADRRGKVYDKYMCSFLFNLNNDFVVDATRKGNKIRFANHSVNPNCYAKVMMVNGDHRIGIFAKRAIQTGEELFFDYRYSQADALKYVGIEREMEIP

The entries are a selection whose mix differs from that of the whole data set. Some structures show a salt or complex split into parts, the way the source records it. The source made the active and inactive calls.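 The calls were made as follows: active = mean inhibition of replicates at least 50% and every single replicate also reaching 50%; inconclusive = mean inhibition at least 50% but some replicate falls below 50%; inactive = mean inhibition under 50%.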

The test addresses Histone-lysine N-methyltransferase EZH2 (Homo sapiens) (UniProt Q15910). Description: EZH2/PRC2 methyltransferase inhibitors, primary screen, biochemical, DELFIA time-resolved fluorescence, single point (AID 651548).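 Also: dimethyl H3K27 on biotinylated H3 21-44 peptide detected by antibody; plate controls were median neutral control wells for no effect and median positive control wells for full effect.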 The conditions noted are these: PRC2 H3K27 methylation, DELFIA TRF, 1 h; at 12.5 µM; hits give high values.
On to `C/C1=C2N=C(/C=C3N=C(/C(C)=C4\[N-][C@@](C)([C@@H]5N=C1[C@](C)(CCC(=O)NCC(C)OP(=O)(O)O[C@@H]1[C@H](O)[C@H](n6cnc7cc(C)c(C)cc76)O[C@H]1CO)[C@H]5CC(N)=O)[C@@](C)(CC(N)=O)[C@@H]4CCC(N)=O)[C@@](C)(CC(N)=O)[C@@H]\3CCC(N)=O)C(C)(C)[C@@H]/2CCC(N)=O.[C-]#N.[Co+3]` (stereo partly specified), for which the inhibition (as a rule, the relative decrease from the control value, in per cent) is inactive: -6.46%.
